Data reported in US8138140B2, “Self-assembling peptide amphiphiles and related methods for growth factor delivery” (Northwestern University, priority 2003, dated 2012).

Assay: Acid-base (pKa) titrations of PA aggregates
Settings: 3 mM, aggregated state

C15H31CONHVal-Val-Val-Ala-Ala-Ala-Lys-Lys-Lys-COOH [PA 1]
apparent pKa of aggregates (titration curve): complex curves with transitions occurring over wide ranges
